IC50 data for 25 molecules are collected here from patent US9636336B2, “Aminoester derivatives” (CHIESI FARMACEUTICI S.p.A., priority 2015, dated 2017).

The chains behind the UniProt entries cited, without tags or fusion partners. A line that says so, or that is headed by a name, gives the form on record, which may keep a tag or linker. Residues count along the entry.
UniProt P20309, whole entry: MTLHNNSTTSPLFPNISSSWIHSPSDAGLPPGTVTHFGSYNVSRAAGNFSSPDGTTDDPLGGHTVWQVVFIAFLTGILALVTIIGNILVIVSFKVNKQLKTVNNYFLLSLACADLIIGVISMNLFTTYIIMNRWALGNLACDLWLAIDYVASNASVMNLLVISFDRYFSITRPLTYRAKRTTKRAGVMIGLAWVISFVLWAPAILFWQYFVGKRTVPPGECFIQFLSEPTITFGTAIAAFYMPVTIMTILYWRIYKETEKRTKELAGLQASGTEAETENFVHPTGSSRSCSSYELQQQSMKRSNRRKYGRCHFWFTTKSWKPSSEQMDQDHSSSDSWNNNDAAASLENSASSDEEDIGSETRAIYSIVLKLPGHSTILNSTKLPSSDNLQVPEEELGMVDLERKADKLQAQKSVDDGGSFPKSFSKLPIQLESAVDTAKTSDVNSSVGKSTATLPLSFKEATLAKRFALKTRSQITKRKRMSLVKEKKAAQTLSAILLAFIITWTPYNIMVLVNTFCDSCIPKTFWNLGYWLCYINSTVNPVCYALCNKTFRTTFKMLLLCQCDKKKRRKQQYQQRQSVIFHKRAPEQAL
UniProt Q07343, 212-736 with tags or gaps limits assumed: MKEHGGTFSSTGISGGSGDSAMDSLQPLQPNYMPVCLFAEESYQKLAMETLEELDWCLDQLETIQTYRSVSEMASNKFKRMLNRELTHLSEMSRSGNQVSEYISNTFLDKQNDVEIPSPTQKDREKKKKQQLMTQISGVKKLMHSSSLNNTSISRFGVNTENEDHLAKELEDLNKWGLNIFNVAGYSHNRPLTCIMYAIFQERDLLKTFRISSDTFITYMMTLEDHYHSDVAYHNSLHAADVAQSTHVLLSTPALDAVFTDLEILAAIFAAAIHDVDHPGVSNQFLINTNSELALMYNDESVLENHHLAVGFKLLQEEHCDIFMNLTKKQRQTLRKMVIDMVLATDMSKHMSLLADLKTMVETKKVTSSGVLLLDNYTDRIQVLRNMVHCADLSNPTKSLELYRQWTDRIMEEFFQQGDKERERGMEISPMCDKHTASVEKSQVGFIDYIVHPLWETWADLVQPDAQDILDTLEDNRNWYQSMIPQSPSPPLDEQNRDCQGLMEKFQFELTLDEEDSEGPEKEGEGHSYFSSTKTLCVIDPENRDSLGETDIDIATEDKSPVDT

Where two headings read alike, the source gives them in different places.

For experiment [1], the target named is Human M3 receptor membranes (Homo sapiens (Human), UniProt P20309). Put plainly: M3 Receptor radioligand binding assay.
For a further experiment, the target named is Human recombinant PDE4B2 (Homo sapiens (Human), UniProt Q07343). Put plainly: PDE4B2 HTRF assay. In kind it is biochemical. Particulars: read-out: PDE4B2 IC50 activity.

As for `COCCN1CCC(COC(=O)C(NCc2ccc(C(=O)O[C@@H](Cc3c(Cl)c[n+]([O-])cc3Cl)c3ccc(OC)c(OC)c3)s2)c2ccccc2)CC1` (single isomer, unassigned), the results for the IC50 (in experiment [1] (read-out: M3 IC50 activity); at Human recombinant PDE4B2) were 10 to 100 nM and 1 to 10 nM, respectively.
Turning to `COc1ccc(C(Cc2c(Cl)c[n+]([O-])cc2Cl)OC(=O)c2ccc(CNC(C(=O)OCC3CCN(C)CC3)c3ccccc3)s2)cc1OC1CCCC1` (single isomer, unassigned) [Example 57], the IC50 lay within 10 to 100 nM in experiment [1] (read-out: M3 IC50 activity) and 1 to 10 nM on Human recombinant PDE4B2.
Consider `COc1ccc([C@H](Cc2c(Cl)c[n+]([O-])cc2Cl)OC(=O)c2ccc(CNC(C(=O)OCC3(C)CCN(C)CC3)c3ccccc3)s2)cc1OC` (single isomer, unassigned), for which the figures for the half-maximal inhibitory concentration (IC50) (in experiment [1] (read-out: M3 IC50 activity); at Human recombinant PDE4B2) were 10 to 100 nM and 1 to 10 nM, respectively.
Turning to `COc1ccc(C(Cc2c(Cl)c[n+]([O-])cc2Cl)OC(=O)c2ccc(CNC(C(=O)OCC3CCN(C)CC3)c3ccccc3)s2)cc1OC1CCCC1` (single isomer, unassigned) [Example 58], the 50% inhibitory concentration (IC50) in experiment [1] (read-out: M3 IC50 activity) is 1 to 10 nM.
`COc1ccc([C@H](Cc2c(Cl)c[n+]([O-])cc2Cl)OC(=O)c2ccc(CNC(CO)(C(=O)OC[C@H]3CCN(C)C3)c3ccccc3)s2)cc1OC` (single isomer, unassigned) [Example 126]: at Human recombinant PDE4B2, the 50% inhibitory concentration (IC50) was in the range of 1 to 10 nM.
Still for that read-out and setting: to `COc1ccc([C@H](Cc2c(Cl)c[n+]([O-])cc2Cl)OC(=O)c2ccc(CNC(C(=O)OCC3(F)CCN(C)CC3)c3ccccc3)s2)cc1OC` (single isomer, unassigned) [Example 53] belongs 1 to 10 nM.
`COc1ccc([C@H](Cc2c(Cl)c[n+]([O-])cc2Cl)OC(=O)c2ccc(CNC(C(=O)OCCN3CCCC3)c3ccccc3)s2)cc1OC` (single isomer, unassigned) [Example 83]: the IC50 at Human recombinant PDE4B2 lay within 1 to 10 nM.
In the case of `COc1ccc([C@H](Cc2c(Cl)c[n+]([O-])cc2Cl)OC(=O)c2ccc(CNC(C(=O)OC[C@H]3CCCN(C)C3)c3ccccc3)s2)cc1OC` (single isomer, unassigned) [Example 91], in experiment [1] (read-out: M3 IC50 activity), the IC50 was 1 to 10 nM.
As for `COc1ccc([C@H](Cc2c(Cl)c[n+]([O-])cc2Cl)OC(=O)c2ccc(CNC(C(=O)OC[C@@H]3CCN(C)C3)c3ccccc3)s2)cc1OC` (single isomer, unassigned) [Example 76], the IC50 (in experiment [1] (read-out: M3 IC50 activity); on Human recombinant PDE4B2) was 1 to 10 nM throughout.
Turning to `COc1ccc([C@H](Cc2c(Cl)c[n+]([O-])cc2Cl)OC(=O)c2ccc(CNC(C)(C(=O)OCC3CCN(C)CC3)c3ccccc3)s2)cc1OC` (single isomer, unassigned) [Example 104], the IC50 in experiment [1] (read-out: M3 IC50 activity) is 10 to 100 nM.
Turning to `COc1ccc([C@H](Cc2c(Cl)c[n+]([O-])cc2Cl)OC(=O)c2ccc(CNC(CO)(C(=O)OC[C@@H]3CCN(C)C3)c3ccccc3)s2)cc1OC` (single isomer, unassigned) [Example 128], the IC50 on Human recombinant PDE4B2 lay in the range of 1 to 10 nM.
Consider `COc1ccc([C@H](Cc2c(Cl)c[n+]([O-])cc2Cl)OC(=O)c2ccc(CNC(C(=O)OC[C@@H]3CCN(C)C3)c3ccccc3)s2)cc1OC` (single isomer, unassigned) [Example 75], for which the IC50 in experiment [1] (read-out: M3 IC50 activity) lay within 10 to 100 nM; at Human recombinant PDE4B2 it was 1 to 10 nM.
On to `COc1ccc([C@H](Cc2c(Cl)c[n+]([O-])cc2Cl)OC(=O)c2ccc(CNC(C(=O)OCCN3CCCC3)c3ccccc3)s2)cc1OC` (single isomer, unassigned) [Example 84], for which the concentration for half-maximal inhibition (IC50) on Human recombinant PDE4B2 was 1 to 10 nM.
For the molecule `COc1ccc([C@H](Cc2c(Cl)c[n+]([O-])cc2Cl)OC(=O)c2ccc(CNC(CO)(C(=O)OCC3CCN(C)CC3)c3cccs3)s2)cc1OC` (single isomer, unassigned), in experiment [1] (read-out: M3 IC50 activity, tested form: formate), the IC50 fell in the range of 1 to 10 nM.
With `COCCOc1cc([C@H](Cc2c(Cl)c[n+]([O-])cc2Cl)OC(=O)c2ccc(CNC(C(=O)OCC3CCN(C)CC3)c3ccccc3)s2)ccc1OC(F)F` (single isomer, unassigned) [Example 123], the IC50 in experiment [1] (read-out: M3 IC50 activity) was 10 to 100 nM; at Human recombinant PDE4B2, 1 to 10 nM.
Turning to `COc1ccc([C@H](Cc2c(Cl)c[n+]([O-])cc2Cl)OC(=O)c2ccc(CNC(C(=O)OC[C@@H]3CCCCN3C)c3ccccc3)s2)cc1OC` (single isomer, unassigned), in experiment [1] (read-out: M3 IC50 activity), the IC50 was in the range of 1 to 10 nM.
As to `COc1ccc([C@H](Cc2c(Cl)c[n+]([O-])cc2Cl)OC(=O)c2ccc(CNC(C(=O)OC[C@H]3CCN(C)C3)c3ccccc3)s2)cc1OC` (single isomer, unassigned), the IC50 is 10 to 100 nM in experiment [1] (read-out: M3 IC50 activity) and 1 to 10 nM on Human recombinant PDE4B2.
Turning to `COc1ccc([C@H](Cc2c(Cl)c[n+]([O-])cc2Cl)OC(=O)c2ccc(CNC(C(=O)OC[C@H]3CCCN(C)C3)c3ccccc3)s2)cc1OC` (single isomer, unassigned) [Example 90], the IC50 in experiment [1] (read-out: M3 IC50 activity) was 10 to 100 nM.
As for `COCCOc1cc([C@H](Cc2c(Cl)c[n+]([O-])cc2Cl)OC(=O)c2ccc(CNC(C(=O)OCC3CCN(C)CC3)c3ccccc3)s2)ccc1OC(F)F` (single isomer, unassigned) [Example 124], the half-maximal inhibitory concentration (IC50) (in experiment [1] (read-out: M3 IC50 activity); at Human recombinant PDE4B2) was 1 to 10 nM each time.
As to `COc1ccc([C@H](Cc2c(Cl)c[n+]([O-])cc2Cl)OC(=O)c2ccc(CNC(C(=O)OCC3CCN(C)CC3)C3CCCCC3)s2)cc1OC` (single isomer, unassigned), the IC50 in experiment [1] (read-out: M3 IC50 activity) lay within 10 to 100 nM.
With `COc1ccc([C@H](Cc2c(Cl)c[n+]([O-])cc2Cl)OC(=O)c2ccc(CNC(CO)(C(=O)OC[C@@H]3CCN(C)C3)c3ccccc3)s2)cc1OC` (single isomer, unassigned) [Example 129], the 50% inhibitory concentration (IC50) was 10 to 100 nM in experiment [1] (read-out: M3 IC50 activity) and 1 to 10 nM at Human recombinant PDE4B2.
As for `COc1ccc([C@H](Cc2c(Cl)c[n+]([O-])cc2Cl)OC(=O)c2ccc(CNC(CO)(C(=O)OC[C@H]3CCN(C)C3)c3ccccc3)s2)cc1OC` (single isomer, unassigned) [Example 127], the half-inhibitory concentration (IC50) in experiment [1] (read-out: M3 IC50 activity) fell in the range of 10 to 100 nM.
In the case of `COc1ccc([C@H](Cc2c(Cl)c[n+]([O-])cc2Cl)OC(=O)c2ccc(CNC(C(=O)OC[C@H]3CCCCN3C)c3ccccc3)s2)cc1OC` (single isomer, unassigned), the IC50 in experiment [1] (read-out: M3 IC50 activity) lay in the range of 1 to 10 nM.
Turning to `COc1ccc([C@H](Cc2c(Cl)c[n+]([O-])cc2Cl)OC(=O)c2ccc(CNC(C(=O)OCC3(F)CCN(C)CC3)c3ccccc3)s2)cc1OC` (single isomer, unassigned) [Example 54], on Human recombinant PDE4B2, the 50% inhibitory concentration (IC50) lay in the range of 1 to 10 nM.
Take `COc1ccc([C@H](Cc2c(Cl)c[n+]([O-])cc2Cl)OC(=O)c2ccc(CNC(C)(C(=O)OCC3CCN(C)CC3)c3ccccc3)s2)cc1OC` (single isomer, unassigned) [Example 103]: the IC50 (in experiment [1] (read-out: M3 IC50 activity); at Human recombinant PDE4B2) was 1 to 10 nM each time.

The IC50 is the concentration that gives 50% inhibition.
